The experiment addresses T1, p65 nuclear factor kappa-light-chain-enhancer of activated B cells (NF-κB) (human (endogenous in THP-1-derived macrophages)), Q04206.
T1 chain: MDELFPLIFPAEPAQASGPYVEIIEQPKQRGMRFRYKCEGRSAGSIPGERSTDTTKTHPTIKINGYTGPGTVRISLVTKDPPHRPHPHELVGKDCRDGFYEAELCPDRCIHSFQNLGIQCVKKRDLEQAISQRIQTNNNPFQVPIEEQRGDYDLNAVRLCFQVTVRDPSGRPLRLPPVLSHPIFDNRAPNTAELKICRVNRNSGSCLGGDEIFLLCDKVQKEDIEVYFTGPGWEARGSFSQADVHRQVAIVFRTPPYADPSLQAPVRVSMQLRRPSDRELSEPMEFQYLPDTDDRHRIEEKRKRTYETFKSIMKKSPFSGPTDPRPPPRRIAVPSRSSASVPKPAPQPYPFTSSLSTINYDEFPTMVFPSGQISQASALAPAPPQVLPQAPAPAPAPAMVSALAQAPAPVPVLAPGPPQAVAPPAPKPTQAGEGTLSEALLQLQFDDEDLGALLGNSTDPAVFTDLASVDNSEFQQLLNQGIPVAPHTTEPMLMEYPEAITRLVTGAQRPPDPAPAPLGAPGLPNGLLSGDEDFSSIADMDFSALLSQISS
Description: native gel or EMSA; native ('naïve') PAGE of macrophages transfected with or without FLAG-DHX9 and treated with 0, 40 or 80 μg/mL oxLDL; p65 dimer detected. Particulars: remark: other sources report otherwise. On the technique in general: Mobility shift assays separate free from complexed probe on a gel.

A word on the stoichiometry N: it is the number of molecules, sites or subunits per partner or assembly.

B1: p65 nuclear factor kappa-light-chain-enhancer of activated B cells (NF-κB), Q04206 1-551 (natural protein)
chain: MDELFPLIFPAEPAQASGPYVEIIEQPKQRGMRFRYKCEGRSAGSIPGERSTDTTKTHPTIKINGYTGPGTVRISLVTKDPPHRPHPHELVGKDCRDGFYEAELCPDRCIHSFQNLGIQCVKKRDLEQAISQRIQTNNNPFQVPIEEQRGDYDLNAVRLCFQVTVRDPSGRPLRLPPVLSHPIFDNRAPNTAELKICRVNRNSGSCLGGDEIFLLCDKVQKEDIEVYFTGPGWEARGSFSQADVHRQVAIVFRTPPYADPSLQAPVRVSMQLRRPSDRELSEPMEFQYLPDTDDRHRIEEKRKRTYETFKSIMKKSPFSGPTDPRPPPRRIAVPSRSSASVPKPAPQPYPFTSSLSTINYDEFPTMVFPSGQISQASALAPAPPQVLPQAPAPAPAPAMVSALAQAPAPVPVLAPGPPQAVAPPAPKPTQAGEGTLSEALLQLQFDDEDLGALLGNSTDPAVFTDLASVDNSEFQQLLNQGIPVAPHTTEPMLMEYPEAITRLVTGAQRPPDPAPAPLGAPGLPNGLLSGDEDFSSIADMDFSALLSQISS
With B1, the stoichiometry N was determined as 2.

The values are drawn from publication PMC10567826.
